One assay addresses human GLP-1 receptor (human, UniProt P43220 24-463). Description: cell-based or functional assay.
In assay [1] the target is T1, cynomolgus Avi_PCSK9_Flag_His (cynomolgus, UniProt A0A2K5TZC4 150-811).
T1 construct: In-house protein; also called cynomolgus PCSK9; CyPCSK9
Nature of the assay: SPR (Biacore), IgG captured.

By UniProt entry, the sequences of proteins in these tests, tags left out. Residues count along the entry.
UniProt P43220, 24-463: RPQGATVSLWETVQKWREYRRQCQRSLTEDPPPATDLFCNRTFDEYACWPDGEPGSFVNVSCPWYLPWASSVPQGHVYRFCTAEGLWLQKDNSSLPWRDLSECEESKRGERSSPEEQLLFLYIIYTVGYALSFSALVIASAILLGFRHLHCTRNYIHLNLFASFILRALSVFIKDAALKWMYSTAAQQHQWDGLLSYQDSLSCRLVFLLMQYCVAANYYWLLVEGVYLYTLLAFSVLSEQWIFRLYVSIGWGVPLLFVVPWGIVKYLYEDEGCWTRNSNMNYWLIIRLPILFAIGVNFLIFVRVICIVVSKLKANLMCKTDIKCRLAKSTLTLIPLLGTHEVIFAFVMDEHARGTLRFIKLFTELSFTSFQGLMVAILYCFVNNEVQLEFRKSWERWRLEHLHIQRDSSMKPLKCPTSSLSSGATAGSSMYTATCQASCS

B1: PC9_2_Exe4_DSB#9 (antibody)
chain 1: QVQLVQSGAEVKKPGASVKVSCKASGYTFTSYYMHWVRQAPGQGLEWMGEIHPSGGRTNYNEKFKSRVTMTRDTSTSTVYMELSSLRSEDTAVYYCARERPLYASDLWGQGTTVTVSS
chain 2: HGEGTFTSDLSKQMEEEAVRCFIEWLKNGGPSSGAPPCGGDIQMTQSPSSLSASVGDRVTITCKASQDVHTAVAWYQQKPGKAPKLLIYHASYRYTGVPSRFSGSGSGTDFTFTISSLQPEDIATYYCQQRYSLWRTFGQGTKLEIK
Take B1: the “EC50, cAMP assay” value with human GLP-1 receptor was determined as 0.124 nM.

B2: HS9_DSB7 (antibody)
VH: QVQLVQSGAEVKKPGASVKVSCKASGYTFTSYYMHWVRQAPGQGLEWMGEISPSGGSTSYNQKFQGRVTMTRDTSTSTVYMELSSLRSEDTAVYYCARERPLYASDLWGQGTTVTVSS
VL: HGEGTFTSDLSKQMEEECVRLFIEWLKNGGPSSGAPPPGCGGGGGSGGGGSGGGGSADIQMTQSPSSLSASVGDRVTITCQASQDVKTAVAWYQQKPGKAPKLLIYSASYRYTGVPSRFSGSGSGTDFTFTISSLQPEDIATYYCQQRYSLWRTFGQGTKLEIK
notes: also called PC9_HS9_DSB#7
On to B2, for which the dissociation constant Kd in assay [1] was 2.99 nM.

The Kd is the concentration at which binding is half-saturated. A higher Kd goes with weaker binding.

Values taken from patent US20160369010A1 (AstraZeneca / MedImmune, published 2016).
